Values of other authors, collected in patent US20260382549A1, “USE OF (S)-3-AMINO-4-(DIFLUOROMETHYLENYL)CYCLOPENT-1-ENE-1-CARBOXYLIC ACID INTHE TREATMENT OF DIABETES AND PRE-DIABETES” (published 2026).

Key:
[1] = use in treatment resistant epilepsy and infantile spasms
[2] = system: aspartate aminotransferase (Asp-AT); conditions: role: inhibitor
[3] = system: alanine aminotransferase (Ala-AT); conditions: role: inhibitor
[4] = system: LPS-stimulated murine macrophages; conditions: GABA or a GABAA-R agonist
murine T cell = conditions: Tian et al., Sci Rep 11, 5402 (2021)
[5] = preclinical, compared with vigabatrin
[6] = significantly lower drug dosages

## C=CC(N)CCC(=O)O (centres unmarked)
[1]
  serious side effects: potential retinal toxicity and subsequent visual field defects

## N[C@H]1C=C(C(=O)O)CC1=C(F)F
[2]; very weak reversible inhibitor
  IC50: > 4 mM
[3]; very weak reversible inhibitor
  IC50: > 4 mM

## NCCCC(=O)O
[4]
  secretion of IL-6, IL-1B, IL-12 and/or TNFα: reduced
Murine T cell
  TGFß and Treg responses: promoting
  murine T cell production of IL-21, IFNγ2-4, TNFα3, and IL-123: limit

## N[C@H]1C[C@@H](C(=O)O)CC1=C(F)F
[2]; unlike vigabatrin
  inactivation or inhibition of off-target enzyme Asp-AT: not to inactivate or inhibit
[5]
  pharmacokinetics at significantly lower drug dosages: comparable pharmacokinetics
[5]; [6]
  tolerability: improved tolerability
  toxicity profile: more favorable toxicity profile
[3]; unlike vigabatrin
  inactivation or inhibition of off-target enzyme Ala-AT: not to inactivate or inhibit
